Molecular target: NAMPT (Homo sapiens (Human), UniProt P43490)
Details: read-out: TR-FRET Binding IC50 (μM) probe 1

The chains behind the UniProt entries cited, without tags or fusion partners. Where a name states a change or a piece, a line headed by the entry shows the natural chain unless it says otherwise.
UniProt P43490: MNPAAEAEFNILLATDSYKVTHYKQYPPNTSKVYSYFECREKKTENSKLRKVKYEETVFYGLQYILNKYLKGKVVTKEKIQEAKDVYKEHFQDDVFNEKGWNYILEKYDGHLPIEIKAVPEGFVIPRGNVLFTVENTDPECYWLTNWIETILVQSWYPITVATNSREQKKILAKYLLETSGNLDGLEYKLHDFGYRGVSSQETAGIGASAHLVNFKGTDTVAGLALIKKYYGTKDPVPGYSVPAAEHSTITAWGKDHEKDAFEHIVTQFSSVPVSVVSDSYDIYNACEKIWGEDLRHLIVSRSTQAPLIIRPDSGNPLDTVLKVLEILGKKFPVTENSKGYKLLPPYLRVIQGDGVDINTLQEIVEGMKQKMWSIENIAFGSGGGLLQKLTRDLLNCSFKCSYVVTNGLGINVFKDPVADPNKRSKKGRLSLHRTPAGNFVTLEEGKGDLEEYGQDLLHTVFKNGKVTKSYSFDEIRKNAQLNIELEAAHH

**Q.** CCCCC(=O)Nc1ccc(NC(=O)N2Cc3ccccc3C2)cc1 [Example 304, N-[4-(pentanoylamino)phenyl]-1,3-dihydro-2H-isoindole-2-carboxamide] was tested. Which IC50 did it give?
**A.** The IC50 was 0.0133 µM.

**Q.** For CCCCCC(=O)Nc1ccc(NC(=O)N2Cc3ccccc3C2)cc1 [Example 305, N-[4-(hexanoylamino)phenyl]-1,3-dihydro-2H-isoindole-2-carboxamide], which IC50 is on record?
**A.** The IC50 was 0.0121 µM.

**Q.** For CCCCCCC(=O)Nc1ccc(NC(=O)N2Cc3ccccc3C2)cc1 [Example 306, N-[4-(heptanoylamino)phenyl]-1,3-dihydro-2H-isoindole-2-carboxamide], which IC50 is on record?
**A.** Its IC50 is 0.0133 µM.

**Q.** For C=CCCC(=O)Nc1ccc(NC(=O)N2Cc3ccccc3C2)cc1 [Example 307, N-[4-(pent-4-enoylamino)phenyl]-1,3-dihydro-2H-isoindole-2-carboxamide], which IC50 is on record?
**A.** Its IC50 is 0.0254 µM.

**Q.** How did the IC50 turn out when CCOCC(=O)Nc1ccc(NC(=O)N2Cc3ccccc3C2)cc1 [Example 308, N-{4-[(ethoxyacetyl)amino]phenyl}-1,3-dihydro-2H-isoindole-2-carboxamide] was run?
**A.** Its IC50 is 0.0808 µM.

**Q.** Which IC50 does the source give for COCCOCC(=O)Nc1ccc(NC(=O)N2Cc3ccccc3C2)cc1 [Example 309, N-(4-{[(2-methoxyethoxy)acetyl]amino}phenyl)-1,3-dihydro-2H-isoindole-2-carboxamide] here?
**A.** The IC50 was 0.0634 µM.

**Q.** O=C(CC1CC1)Nc1ccc(NC(=O)N2Cc3ccccc3C2)cc1 [Example 310, N-{4-[(cyclopropylacetyl)amino]phenyl}-1,3-dihydro-2H-isoindole-2-carboxamide] was tested. Which IC50 did it give?
**A.** Its IC50 is 0.0368 µM.

**Q.** How did the IC50 turn out when O=C(CC1CCCC1)Nc1ccc(NC(=O)N2Cc3ccccc3C2)cc1 [Example 311, N-{4-[(cyclopentylacetyl)amino]phenyl}-1,3-dihydro-2H-isoindole-2-carboxamide] was run?
**A.** The IC50 was 0.00524 µM.

**Q.** For CN1CCN(CCC(=O)Nc2ccc(NC(=O)N3Cc4ccccc4C3)cc2)CC1 [Example 312, N-(4-{[3-(4-methylpiperazin-1-yl)propanoyl]amino}phenyl)-1,3-dihydro-2H-isoindole-2-carboxamide], which IC50 is on record?
**A.** The IC50 was 0.114 µM.

**Q.** How did the IC50 turn out when O=C(CC1CCCC1)Nc1ccc(NC(=O)N2Cc3ccc(C(=O)O)cc3C2)cc1 [Example 314, 2-({4-[(cyclopentylacetyl)amino]phenyl}carbamoyl)isoindoline-5-carboxylic acid] was run?
**A.** Its IC50 is 0.021 µM.

**Q.** How did the IC50 turn out when O=C(CC1CCCC1)Nc1ccc(NC(=O)N2Cc3ccc(CO)cc3C2)cc1 [Example 315, N-{4-[(cyclopentylacetyl)amino]phenyl}-5-(hydroxymethyl)-1,3-dihydro-2H-isoindole-2-carboxamide] was run?
**A.** The IC50 was 0.00762 µM.

**Q.** O=C(Nc1ccc(NCCC2CCCC2)cc1)N1Cc2ccc(CO)cc2C1 [Example 316, N-{4-[(2-cyclopentylethyl)amino]phenyl}-5-(hydroxymethyl)-1,3-dihydro-2H-isoindole-2-carboxamide] was tested. Which IC50 did it give?
**A.** The IC50 was 0.287 µM.

**Q.** For CC(C)(C)OC(=O)N1CC=C(c2ccc(NC(=O)N3Cc4ccccc4C3)cc2)CC1 [Example 317, tert-Butyl 4-{4-[(1,3-dihydro-2H-isoindol-2-ylcarbonyl)amino]phenyl}-3,6-dihydropyridine-1(2H)-carboxylate], which IC50 is on record?
**A.** Its IC50 is 0.0421 µM.

**Q.** With O=C(Nc1ccc(C2=CCNCC2)cc1)N1Cc2ccccc2C1 [Example 318, N-[4-(1,2,3,6-tetrahydropyridin-4-yl)phenyl]-1,3-dihydro-2H-isoindole-2-carboxamide] as the compound, how does the IC50 read?
**A.** Its IC50 is 0.249 µM.

**Q.** CC(C)CCn1cc(-c2ccc(NC(=O)N3Cc4ccccc4C3)cc2)cn1 [Example 319, N-{4-[1-(3-methylbutyl)-1H-pyrazol-4-yl]phenyl}-1,3-dihydro-2H-isoindole-2-carboxamide] was tested. Which IC50 did it give?
**A.** Its IC50 is 0.0319 µM.

**Q.** Cn1cc(-c2ccc(NC(=O)N3Cc4ccccc4C3)cc2)cn1 [Example 320, N-[4-(1-methyl-1H-pyrazol-4-yl)phenyl]-1,3-dihydro-2H-isoindole-2-carboxamide] was tested. Which IC50 did it give?
**A.** Its IC50 is 0.272 µM.

**Q.** O=C(Nc1ccc(/C=C/CCCc2ccccc2)cc1)N1Cc2ccccc2C1 [Example 321, N-{4-[(1E)-5-phenylpent-1-en-1-yl]phenyl}-1,3-dihydro-2H-isoindole-2-carboxamide] was tested. Which IC50 did it give?
**A.** The IC50 was 0.203 µM.

**Q.** CCCn1cc(-c2ccc(NC(=O)N3Cc4ccccc4C3)cc2)cn1 [Example 322, N-[4-(1-propyl-1H-pyrazol-4-yl)phenyl]-1,3-dihydro-2H-isoindole-2-carboxamide] was tested. Which IC50 did it give?
**A.** The IC50 was 0.0255 µM.

**Q.** With O=C(Nc1ccc(-c2cnn(Cc3ccccc3)c2)cc1)N1Cc2ccccc2C1 [Example 323, N-[4-(1-benzyl-1H-pyrazol-4-yl)phenyl]-1,3-dihydro-2H-isoindole-2-carboxamide] as the compound, how does the IC50 read?
**A.** The IC50 was 0.0988 µM.

**Q.** For O=C(Nc1ccc(-c2cnn(CCO)c2)cc1)N1Cc2ccccc2C1 [Example 324, N-{4-[1-(2-hydroxyethyl)-1H-pyrazol-4-yl]phenyl}-1,3-dihydro-2H-isoindole-2-carboxamide], which IC50 is on record?
**A.** Its IC50 is 0.333 µM.

**Q.** For CCCn1cc(-c2ccc(NC(=O)N3Cc4ccccc4C3)cn2)cn1 [Example 325, N-[6-(1-propyl-1H-pyrazol-4-yl)pyridin-3-yl]-1,3-dihydro-2H-isoindole-2-carboxamide], which IC50 is on record?
**A.** Its IC50 is 0.0987 µM.

**Q.** For CC(C)CCn1cc(-c2ccc(NC(=O)N3Cc4ccccc4C3)cn2)cn1 [Example 326, N-{6-[1-(3-methylbutyl)-1H-pyrazol-4-yl]pyridin-3-yl}-1,3-dihydro-2H-isoindole-2-carboxamide], which IC50 is on record?
**A.** The IC50 was 0.0743 µM.

**Q.** Which IC50 does the source give for O=C(Nc1ccc(CCCCCc2ccccc2)cc1)N1Cc2ccccc2C1 [Example 327, N-[4-(5-phenylpentyl)phenyl]-1,3-dihydro-2H-isoindole-2-carboxamide] here?
**A.** Its IC50 is 0.223 µM.

**Q.** How did the IC50 turn out when CCCn1cc(-c2ccc(NC(=O)N3Cc4ccccc4C3)c(F)c2)cn1 [Example 328, N-[2-fluoro-4-(1-propyl-1H-pyrazol-4-yl)phenyl]-1,3-dihydro-2H-isoindole-2-carboxamide] was run?
**A.** Its IC50 is 0.331 µM.

**Q.** CC(C)CCn1cc(-c2ccc(NC(=O)N3Cc4ccccc4C3)c(F)c2)cn1 [Example 329, N-{2-fluoro-4-[1-(3-methylbutyl)-1H-pyrazol-4-yl]phenyl}-1,3-dihydro-2H-isoindole-2-carboxamide] was tested. Which IC50 did it give?
**A.** Its IC50 is 2.02 µM.

**Q.** With CCCC(=O)N1CC=C(c2ccc(NC(=O)N3Cc4ccccc4C3)cc2)CC1 [Example 330, N-[4-(1-butyryl-1,2,3,6-tetrahydropyridin-4-yl)phenyl]-1,3-dihydro-2H-isoindole-2-carboxamide] as the compound, how does the IC50 read?
**A.** The IC50 was 0.00618 µM.

**Q.** With CC(C)C(=O)N1CC=C(c2ccc(NC(=O)N3Cc4ccccc4C3)cc2)CC1 [Example 331, N-[4-(1-isobutyryl-1,2,3,6-tetrahydropyridin-4-yl)phenyl]-1,3-dihydro-2H-isoindole-2-carboxamide] as the compound, how does the IC50 read?
**A.** The IC50 was 0.00611 µM.

**Q.** How did the IC50 turn out when O=C(Nc1ccc(C2=CCN(C(=O)c3ccccc3)CC2)cc1)N1Cc2ccccc2C1 [Example 332, N-[4-(1-benzoyl-1,2,3,6-tetrahydropyridin-4-yl)phenyl]-1,3-dihydro-2H-isoindole-2-carboxamide] was run?
**A.** Its IC50 is 0.0042 µM.

**Q.** Which IC50 does the source give for CC(C)S(=O)(=O)N1CC=C(c2ccc(NC(=O)N3Cc4ccccc4C3)cc2)CC1 [Example 333, N-{4-[1-(isopropylsulfonyl)-1,2,3,6-tetrahydropyridin-4-yl]phenyl}-1,3-dihydro-2H-isoindole-2-carboxamide] here?
**A.** Its IC50 is 0.00315 µM.

**Q.** How did the IC50 turn out when CC(C)C(=O)N1CC=C(c2ccc(NC(=O)N3Cc4ccccc4C3)cn2)CC1 [Example 334, N-(1′-isobutyryl-1′,2′,3′,6′-tetrahydro-2,4′-bipyridin-5-yl)-1,3-dihydro-2H-isoindole-2-carboxamide] was run?
**A.** Its IC50 is 0.0223 µM.

Reference: patent US9302989B2 (priority 2010, dated 2016)
